What was measured:
Type in all cases: cell-based
N87 cells = assay: Cell growth inhibition assay (sulforhodamine B), single agents and combinations; conditions: N87, single agent, 3 days
Protocol: (§1) The effect of the inventive compositions on the cancer cell growth inhibition was conducted in EGFR-overexpressed or -mutated cancer cell lines.
(§2) All cells except for H1975 were cultured for 72 hours prior to cell plating. Cells were seeded in a 96-well plate at 4 to 15×10^3 cells/well. Approximately 24 hours after plating, cells were exposed to ten, two-fold or three fold serial dilutions of test individual compounds or the combination of the two test compounds at a constant molar to molar ratio or non-constant ratio of two agents. Cells were incubated in the presence of compounds for 3 days except for H1975, which was for 2 days at 3×10^3 cells/well.
(§3) Cell growth inhibition based on measurement of cellular protein content is determined by sulforhodamine B colorimetric assay according to the “Nat Protoc. […] The absorbance was read on a SpectraMax™ plate reader at 540 nm. For H1975 cells, cell growth (%) is determined by adding CellTiter™ 96 Aqueous One Solution Cell Proliferation Assay reagent (Promega) according to the manufacturer's protocol.
(§4) Inhibition of cell growth was estimated after treatment with test agent or combination of test agents for incubating time (2-3 days) and comparing the signal to cells treated with vehicle (DMSO). Cell growth (%) was calculated by following equations.
Percentage growth inhibition was calculated using: […]
(§5) Each T value means an absorbance. […]

BT-474 cells = assay: as above; conditions: BT-474, single agent, 3 days
Protocol: as §1, §2, §3, §4
(§6) Percentage growth inhibition was calculated using:
a. […]
as §5

H1975 cells = assay: Cell growth inhibition assay (CellTiter 96 Aqueous One), single agents and combinations; conditions: H1975, single agent, 2 days
Protocol: as §1, §2, §3, §4, §6
a. […]
as §5

GI50 (BT-474 cells)	GI50 (H1975 cells)	Substance	GI50 (N87 cells)
0.082 µM	–	Trastuzumab	> 10 µM
–	> 10 µM	Cetuximab	–

— US20210145834A1, “COMBINATION OF POZIOTINIB WITH CYTOTOXIC AGENT AND/OR OTHER MOLECULARLY TARGETED AGENT AND USE THEREOF” (Spectrum Pharmaceuticals, Inc., priority 2018, published 2021)
